Test results from patent US20240092770A1, “Heterocycle RMB39 Modulators” (Recursion Pharmaceuticals, Inc., priority 2022, published 2024).

The chains behind the UniProt entries cited, without tags or fusion partners. Residues count along the entry.
UniProt Q14498, 2-530 limits assumed: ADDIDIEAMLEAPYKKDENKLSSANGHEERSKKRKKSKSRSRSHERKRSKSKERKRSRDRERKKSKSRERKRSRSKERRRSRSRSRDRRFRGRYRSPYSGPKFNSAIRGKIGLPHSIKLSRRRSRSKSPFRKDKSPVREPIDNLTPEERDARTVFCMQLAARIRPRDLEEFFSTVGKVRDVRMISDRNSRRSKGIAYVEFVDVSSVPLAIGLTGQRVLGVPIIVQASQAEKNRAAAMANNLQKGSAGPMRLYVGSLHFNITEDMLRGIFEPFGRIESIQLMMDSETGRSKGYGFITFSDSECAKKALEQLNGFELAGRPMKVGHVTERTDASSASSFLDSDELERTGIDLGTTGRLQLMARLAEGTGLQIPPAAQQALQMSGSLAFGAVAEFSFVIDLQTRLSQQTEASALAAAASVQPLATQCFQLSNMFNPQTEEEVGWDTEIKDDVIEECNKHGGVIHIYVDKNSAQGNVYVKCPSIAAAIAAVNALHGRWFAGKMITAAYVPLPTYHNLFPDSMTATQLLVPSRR
UniProt Q66K64, whole entry: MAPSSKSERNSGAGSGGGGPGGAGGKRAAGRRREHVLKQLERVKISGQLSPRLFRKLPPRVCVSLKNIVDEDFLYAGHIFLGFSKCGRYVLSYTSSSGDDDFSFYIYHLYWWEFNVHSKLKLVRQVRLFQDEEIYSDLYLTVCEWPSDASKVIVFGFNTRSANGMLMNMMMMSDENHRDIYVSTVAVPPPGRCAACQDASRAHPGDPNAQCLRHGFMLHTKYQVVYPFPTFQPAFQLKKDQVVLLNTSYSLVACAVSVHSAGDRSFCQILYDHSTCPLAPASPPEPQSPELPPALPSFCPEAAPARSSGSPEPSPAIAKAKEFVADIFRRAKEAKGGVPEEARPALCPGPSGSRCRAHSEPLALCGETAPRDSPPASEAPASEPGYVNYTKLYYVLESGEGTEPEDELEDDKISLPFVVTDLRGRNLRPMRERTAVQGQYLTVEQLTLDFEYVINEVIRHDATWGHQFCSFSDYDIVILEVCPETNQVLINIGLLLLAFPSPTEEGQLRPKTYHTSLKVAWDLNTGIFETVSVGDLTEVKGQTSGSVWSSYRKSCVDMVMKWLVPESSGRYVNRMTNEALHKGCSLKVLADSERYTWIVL

Target: RBM39 and the DCAF15 complex (RBM39-Flag / His-DCAF15-DDA1-DDB1) (Homo sapiens (Human), UniProt Q14498+Q66K64)
Assay: DCAF15 RBM39 complex formation TR-FRET assay
Conditions: RBM39(R150-D331) 3xFlag 50 nM, His-DCAF15-DDA1-DDB1 10 nM, 60 min room temperature
Protocol: A TR-FRET assay was used to assess the effect of compounds disclosed herein on the interaction between RBM39 and the DCAF15 complex. Test compounds were dissolved to form a 10 mM DMSO stock solution. A 45 μL aliquot of the stock solution was transferred to a 384 pp-plate, and a threefold, 8-point dilution was performed via transferring 15 μL compound solution into 30 μL of DMSO. The plates were then spun at room temperature at 1,000 RPM for 1 minute.
A 30 nL aliquot of the diluted compound was transferred to a 384 well plate, which was incubated at room temperature for 15 minutes. Next, Solutions 1, 2, and 3 were prepared as described in the below tables. A 5 μL aliquot of Solution 2 was added to each well, followed by 5 μL of Solution 3 to start the reaction. The final volume of each well was 10 μL. The plates were incubated at room temperature for 60 minutes, and then read.
Next, an RBM39 (R150-D331) 3× Flag used in TR-FRET assay was prepared:
Recombinant RBM39 protein is composed of the R1R2 of RBM39 (aa 150 to 331; UniProt: Q14498). The coding sequence was sub-cloned into pGEX4T-1-RBM39-flag vector, expressed as a GST-fusion protein with N-terminal TEV protease cleavage site. A 3× Flag tag was added to the C-terminal of R1R2 used in a FRET assay.

## O=S(=O)(Nc1ccc(F)c2c(Cl)c[nH]c12)c1nccs1
  EC50: 1620 nM
